Assay results published in patent publication US20240116986A1, “FUSION PEPTIDES CONTAINING DIMERIC ALPHA-HELICES, PEPTIDE-MOLECULARCONJUGATES CONTAINING THE SAME AND NUCLEIC ACID DELIVERY COMPOSITIONSCONTAINING THE SAME” (Artprobio Co., Ltd., priority 2022, published 2024).

Details: nanostructure, charge ratio (+/−) 0.25, 20° C.

Glucose-GS-AELAALEAELAALE-(Ahx)2-K-(Ahx)2-KLAALKAKLAALKAG-K(^Nglucose)-NH2 [SAB-g3]
helicity after binding to the EGFP mRNA: 0.935
